# Literature values as cited in patent US6328989A, “Use of bicozamycin for the manufacture of a medicament for treating infections with enterohemorrhagic e. coli” (Fujisawa Pharmaceutical Co., Ltd., priority 1997, dated 2001).
# Test system: E. coli
# Conditions: cited from earlier work
compound,measurement,value
"CCn1cc(C(=O)O)c(=O)c2cc(F)c(N3CCNCC3)cc21 [NFLX, norfloxacin]",antibacterial activity against E. coli,strong antibacterial activity against E. coli
